## Permeability data for macrocyclic peptides

Values of Townsend et al. 2020, doi:10.26434/chemrxiv.13335941.v1, as listed in CycPeptMPDB.

PAMPA measures passive passage through an artificial lipid membrane.
Permeability is given as log10 of P in cm/s; higher (less negative) is more permeable.

| SMILES | PAMPA (log10 cm/s) |
|---|---|
| CC(C)C[C@@H]1NC(=O)[C@H](C)N(C)C(=O)[C@H]2CCCN2C(=O)[C@H](Cc2ccccc2)NC(=O)[C@@H](CC(C)C)N(C)C(=O)[C@@H]2CCCN2C(=O)[C@@H](CC(C)C)NC1=O | -5.71 |
| CC(C)C[C@@H]1C(=O)N[C@@H](Cc2ccccc2)C(=O)N2CCC[C@H]2C(=O)N[C@@H](Cc2ccccc2)CC(=O)N[C@H](CC(C)C)C(=O)N[C@H](CC(C)C)C(=O)N2CCC[C@@H]2C(=O)N1C | -5.47 |
| CC(C)C[C@H]1NC(=O)C[C@H](Cc2ccccc2)NC(=O)[C@H]2CCCN2C(=O)[C@H](Cc2ccccc2)NC(=O)[C@H](CC(C)C)N(C)C(=O)[C@H]2CCCN2C(=O)[C@H](CC(C)C)N(C)C1=O | -5.51 |
| CC(C)C[C@@H]1NC(=O)[C@@H](C)N(C)C(=O)[C@H]2CCCN2C(=O)[C@H](Cc2ccccc2)NC(=O)[C@H](CC(C)C)NC(=O)[C@@H]2CCCN2C(=O)C[C@H](Cc2ccccc2)NC1=O | -5.95 |
| CC(C)C[C@@H]1C(=O)N2CCC[C@@H]2C(=O)N[C@H](CC(C)C)C(=O)N[C@@H](Cc2ccccc2)C(=O)N2CCC[C@@H]2C(=O)N[C@@H](Cc2ccccc2)CC(=O)N[C@H](CC(C)C)C(=O)N1C | -5.58 |
| CCCN1CC(=O)N(C)[C@H](CC(C)C)C(=O)N(C)[C@H](CC(C)C)C(=O)N2CCC[C@@H]2C(=O)N(Cc2ccccc2)CC(=O)N[C@@H](Cc2ccccc2)C(=O)N2CCC[C@@H]2C1=O | -5.58 |
| CC(C)C[C@@H]1NC(=O)[C@H]2CCCN2C(=O)[C@@H](CC(C)C)NC(=O)[C@@H](CC(C)C)NC(=O)C[C@H](Cc2ccccc2)NC(=O)[C@H](Cc2ccccc2)NC1=O | -6.52 |
| CC(C)C[C@@H]1NC(=O)[C@H]2CCCN2C(=O)[C@@H](CC(C)C)NC(=O)[C@@H](CC(C)C)NC(=O)C[C@H](Cc2ccccc2)NC(=O)[C@H]2CCCN2C(=O)[C@H](Cc2ccccc2)NC1=O | -6.27 |
| CC(C)C[C@@H]1NC(=O)[C@@H](C)NC(=O)[C@H]2CCCN2C(=O)[C@H](Cc2ccccc2)NC(=O)[C@H](CC(C)C)N(C)C(=O)[C@H]2CCCN2C(=O)CN(Cc2ccccc2)C1=O | -6.12 |
| CC(C)C[C@H]1NC(=O)C[C@H](Cc2ccccc2)NC(=O)[C@@H]2CCCN2C(=O)[C@H](Cc2ccccc2)NC(=O)[C@H](CC(C)C)N(C)C(=O)[C@@H]2CCCN2C(=O)C[C@H](Cc2ccccc2)NC1=O | -5.75 |
| CCCN1CC(=O)N[C@H](CC(C)C)C(=O)N(Cc2ccccc2)CC(=O)N2CCC[C@@H]2C(=O)N(Cc2ccccc2)CC(=O)N[C@@H](Cc2ccccc2)C(=O)N2CCC[C@@H]2C1=O | -5.85 |
| CC(C)C[C@@H]1NC(=O)[C@@H](C)N(C)C(=O)[C@H](Cc2ccccc2)NC(=O)[C@H](CC(C)C)NC(=O)[C@@H]2CCCN2C(=O)[C@H](CC(C)C)NC1=O | -6.26 |
| CC(C)C[C@H]1NC(=O)[C@H]2CCCN2C(=O)[C@@H](CC(C)C)NC(=O)[C@H](CC(C)C)N(C)C(=O)[C@@H](C)NC(=O)[C@H](Cc2ccccc2)NC1=O | -5.49 |
| CCCN1CC(=O)N(C)[C@H](CC(C)C)C(=O)N[C@@H](Cc2ccccc2)CC(=O)N2CCC[C@H]2C(=O)N(C)[C@H](CC(C)C)C(=O)N[C@@H](Cc2ccccc2)C(=O)N2CCC[C@@H]2C1=O | -5.60 |
| CC(C)C[C@@H]1C(=O)N2CCC[C@H]2C(=O)N(C)[C@@H](CC(C)C)C(=O)N[C@@H](Cc2ccccc2)C(=O)N[C@H](C)C(=O)N[C@H](CC(C)C)C(=O)N1C | -5.92 |
| CC(C)C[C@@H]1C(=O)N[C@@H](Cc2ccccc2)C(=O)N2CCC[C@@H]2C(=O)N[C@@H](Cc2ccccc2)CC(=O)N[C@H](CC(C)C)C(=O)N[C@@H](Cc2ccccc2)CC(=O)N2CCC[C@@H]2C(=O)N1C | -5.86 |
| CC(C)C[C@H]1NC(=O)C[C@H](Cc2ccccc2)NC(=O)[C@H](Cc2ccccc2)NC(=O)[C@@H](CC(C)C)NC(=O)[C@H]2CCCN2C(=O)[C@@H](CC(C)C)NC1=O | -6.15 |

The 2 lowest values of PAMPA among the entries above:

{"smiles": "CC(C)C[C@@H]1NC(=O)[C@H]2CCCN2C(=O)[C@@H](CC(C)C)NC(=O)[C@@H](CC(C)C)NC(=O)C[C@H](Cc2ccccc2)NC(=O)[C@H](Cc2ccccc2)NC1=O", "PAMPA (log10 cm/s)": "-6.52"}
{"smiles": "CC(C)C[C@@H]1NC(=O)[C@H]2CCCN2C(=O)[C@@H](CC(C)C)NC(=O)[C@@H](CC(C)C)NC(=O)C[C@H](Cc2ccccc2)NC(=O)[C@H]2CCCN2C(=O)[C@H](Cc2ccccc2)NC1=O", "PAMPA (log10 cm/s)": "-6.27"}

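Lipid, pH, incubation time, direction and concentration are not recorded in the data file. Other peptides of the study may be missing here. Peptides that the database sets to -10, its floor, are left out.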